Measured values: patent US5908868A, “Retinol derivatives useful for enhancing immune response” (priority 1995, dated 1999)

Assays:
thymocytes [1] = experiment: Growth-stimulating effect of retinol on anti-CD3 activated thymocytes in the presence of interleukins; format: cell-based, BALB/c mouse
Method: Cells were cultured in serum-free medium, referred to as ITLB, containing RPMI 1640 supplemented with 8×10^-7 M insulin (5 μg/ml), 7×10^-8 M transferrin (5 μg/ml), 2×10^-6 M linoleic acid, 2×10^-6 M delipidated BSA (0.12 mg/ml), 2 mM L-glutamine, 1 mM sodium pyruvate and antibiotics. They were seeded into 96-well flat-bottom plates at varying cellular densities in a final volume of 100 μl. In control experiments, cells were cultured in medium containing 10% FCS or 3% human serum and 5×10^-5 M 2 ME. T cells and thymocytes were activated with immobilized, purified anti-mab CD3e or by the addition of Con A in the presence or absence of different concentrations of retinoids. Unless indicated otherwise, retinoids were replenished every 12 hours to maintain a reasonably constant concentration of these labile compounds in culture. The optimal concentration for stimulation of T cells was determined for each batch of anti-CD3 mAb and Con A. The optimal range of Con A was particularly narrow in serum-free medium (0.5-0.2 μg/ml) and varied with the cell density used. […] Cellular proliferation was determined by [^3 H] thymidine uptake (0.5 uCi/well; New England Nuclear, Boston, Mass.) after the incubation times indicated for each experiment with a 4 hour labeling pulse. Cells were harvested onto glass filter and [^3 H]TdR incorporation was determined by liquid scintillation counting. […]

thymocytes [2] = experiment: as above; format: cell-based, BALB/c mouse; settings: 3 days

## IL-2: hrIL-2 purchased from Boehringer Mannheim
Thymocytes [1]; 3 days
  CPM anti-CD3, no Retinol: 458 ± 156 CPM
Thymocytes [1]; anti-CD3-activated thymocytes, no retinol
  substitution for retinol by lymphokines/cytokines: None and none
Thymocytes [2]
  CPM anti-CD3, 10^-6 M Retinol: 77,343 ± 11,739 CPM
